Sequences of proteins named here, by UniProt entry; tags and fusion partners are left off.
UniProt Q12809, whole entry: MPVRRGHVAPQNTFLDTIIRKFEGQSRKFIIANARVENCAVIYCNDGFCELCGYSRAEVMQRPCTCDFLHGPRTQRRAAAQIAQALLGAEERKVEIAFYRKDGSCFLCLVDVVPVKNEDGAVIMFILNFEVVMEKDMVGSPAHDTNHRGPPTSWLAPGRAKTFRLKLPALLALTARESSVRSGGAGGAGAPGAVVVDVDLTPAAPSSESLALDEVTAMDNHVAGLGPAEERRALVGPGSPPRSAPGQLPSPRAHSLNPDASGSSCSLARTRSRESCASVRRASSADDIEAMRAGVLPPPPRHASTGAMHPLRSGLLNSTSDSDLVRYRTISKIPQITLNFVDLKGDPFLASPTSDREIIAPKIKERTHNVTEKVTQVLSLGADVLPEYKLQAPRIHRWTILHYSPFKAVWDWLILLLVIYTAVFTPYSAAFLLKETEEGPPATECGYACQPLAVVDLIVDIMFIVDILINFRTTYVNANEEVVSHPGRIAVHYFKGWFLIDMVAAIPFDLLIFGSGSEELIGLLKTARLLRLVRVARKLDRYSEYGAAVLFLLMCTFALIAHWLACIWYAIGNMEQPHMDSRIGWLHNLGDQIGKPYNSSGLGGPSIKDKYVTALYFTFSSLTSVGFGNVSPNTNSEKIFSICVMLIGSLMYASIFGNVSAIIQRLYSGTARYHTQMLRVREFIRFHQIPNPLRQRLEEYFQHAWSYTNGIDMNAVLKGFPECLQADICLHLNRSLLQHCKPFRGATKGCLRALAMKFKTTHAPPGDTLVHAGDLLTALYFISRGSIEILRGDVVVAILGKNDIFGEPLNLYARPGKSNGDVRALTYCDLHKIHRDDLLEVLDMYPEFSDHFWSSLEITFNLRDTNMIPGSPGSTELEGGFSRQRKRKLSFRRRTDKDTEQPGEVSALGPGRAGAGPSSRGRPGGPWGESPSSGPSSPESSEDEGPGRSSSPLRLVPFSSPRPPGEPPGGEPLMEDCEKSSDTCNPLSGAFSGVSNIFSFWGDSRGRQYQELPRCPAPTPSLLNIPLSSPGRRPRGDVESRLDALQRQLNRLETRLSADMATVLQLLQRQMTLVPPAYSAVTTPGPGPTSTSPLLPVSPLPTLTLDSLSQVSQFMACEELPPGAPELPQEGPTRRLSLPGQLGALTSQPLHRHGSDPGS
UniProt P20813, whole entry: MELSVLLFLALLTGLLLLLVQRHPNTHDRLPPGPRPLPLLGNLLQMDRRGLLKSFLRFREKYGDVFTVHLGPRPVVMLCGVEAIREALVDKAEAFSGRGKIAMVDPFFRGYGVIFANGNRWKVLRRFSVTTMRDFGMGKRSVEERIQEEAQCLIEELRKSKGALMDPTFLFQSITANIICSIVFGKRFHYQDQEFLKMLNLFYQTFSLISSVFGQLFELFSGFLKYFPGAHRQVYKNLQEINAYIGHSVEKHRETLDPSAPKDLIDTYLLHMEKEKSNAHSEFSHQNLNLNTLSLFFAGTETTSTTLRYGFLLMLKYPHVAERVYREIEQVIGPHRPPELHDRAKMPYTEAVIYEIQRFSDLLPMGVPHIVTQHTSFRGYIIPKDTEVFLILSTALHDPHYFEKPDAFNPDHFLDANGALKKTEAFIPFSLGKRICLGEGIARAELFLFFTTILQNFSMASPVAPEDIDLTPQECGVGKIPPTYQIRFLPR
UniProt P05177, whole entry: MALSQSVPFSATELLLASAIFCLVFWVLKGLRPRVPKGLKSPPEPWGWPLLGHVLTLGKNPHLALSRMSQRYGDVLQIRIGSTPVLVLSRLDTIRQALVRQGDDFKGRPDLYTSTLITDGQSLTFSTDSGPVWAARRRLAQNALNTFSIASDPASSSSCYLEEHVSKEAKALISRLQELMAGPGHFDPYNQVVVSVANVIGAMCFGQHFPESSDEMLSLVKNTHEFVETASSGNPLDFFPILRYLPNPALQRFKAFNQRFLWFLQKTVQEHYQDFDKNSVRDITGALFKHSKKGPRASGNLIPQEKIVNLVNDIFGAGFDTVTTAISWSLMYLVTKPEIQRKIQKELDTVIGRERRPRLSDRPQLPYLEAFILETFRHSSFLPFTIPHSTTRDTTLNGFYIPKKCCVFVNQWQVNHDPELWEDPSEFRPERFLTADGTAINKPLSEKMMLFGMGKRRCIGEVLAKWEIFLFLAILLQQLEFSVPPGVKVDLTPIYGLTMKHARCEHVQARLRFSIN
UniProt P10635, whole entry: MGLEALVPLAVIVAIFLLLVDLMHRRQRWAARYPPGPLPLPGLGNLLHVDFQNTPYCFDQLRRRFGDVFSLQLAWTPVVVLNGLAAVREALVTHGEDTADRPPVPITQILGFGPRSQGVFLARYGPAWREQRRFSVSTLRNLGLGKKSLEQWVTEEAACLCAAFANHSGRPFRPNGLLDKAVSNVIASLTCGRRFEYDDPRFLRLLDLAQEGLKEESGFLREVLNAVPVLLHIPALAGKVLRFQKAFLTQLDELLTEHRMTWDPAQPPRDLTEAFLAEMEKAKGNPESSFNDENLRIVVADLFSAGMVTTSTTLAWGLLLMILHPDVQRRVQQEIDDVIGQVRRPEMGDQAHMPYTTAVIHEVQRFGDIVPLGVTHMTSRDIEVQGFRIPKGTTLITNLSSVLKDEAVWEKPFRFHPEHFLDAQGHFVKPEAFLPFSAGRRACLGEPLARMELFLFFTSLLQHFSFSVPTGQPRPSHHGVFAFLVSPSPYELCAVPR
UniProt P10632, whole entry: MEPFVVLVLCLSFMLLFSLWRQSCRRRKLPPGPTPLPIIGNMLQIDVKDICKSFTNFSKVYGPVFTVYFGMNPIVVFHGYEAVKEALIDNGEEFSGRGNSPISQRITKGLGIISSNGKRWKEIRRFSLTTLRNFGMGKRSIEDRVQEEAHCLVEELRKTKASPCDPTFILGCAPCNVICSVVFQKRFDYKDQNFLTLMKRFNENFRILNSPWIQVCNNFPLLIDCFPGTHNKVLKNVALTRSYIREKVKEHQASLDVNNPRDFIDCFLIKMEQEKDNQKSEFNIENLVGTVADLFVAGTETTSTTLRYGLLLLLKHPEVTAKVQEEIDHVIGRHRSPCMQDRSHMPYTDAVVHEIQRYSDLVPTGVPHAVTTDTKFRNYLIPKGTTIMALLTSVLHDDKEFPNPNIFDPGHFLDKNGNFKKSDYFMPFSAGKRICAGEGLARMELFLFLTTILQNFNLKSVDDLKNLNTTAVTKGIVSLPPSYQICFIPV
UniProt P11712, whole entry: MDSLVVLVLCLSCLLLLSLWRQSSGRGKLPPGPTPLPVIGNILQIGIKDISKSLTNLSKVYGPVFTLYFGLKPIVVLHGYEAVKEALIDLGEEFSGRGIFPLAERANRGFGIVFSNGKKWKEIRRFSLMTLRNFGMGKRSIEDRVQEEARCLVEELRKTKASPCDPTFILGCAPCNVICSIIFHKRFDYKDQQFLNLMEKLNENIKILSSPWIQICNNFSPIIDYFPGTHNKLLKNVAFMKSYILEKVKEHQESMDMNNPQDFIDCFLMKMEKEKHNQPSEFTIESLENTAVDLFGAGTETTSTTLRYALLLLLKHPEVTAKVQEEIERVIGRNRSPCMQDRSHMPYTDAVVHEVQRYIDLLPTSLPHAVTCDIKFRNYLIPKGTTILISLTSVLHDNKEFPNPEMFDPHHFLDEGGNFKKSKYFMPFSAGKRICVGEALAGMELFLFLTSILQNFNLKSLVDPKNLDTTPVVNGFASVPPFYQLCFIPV
UniProt P33261, whole entry: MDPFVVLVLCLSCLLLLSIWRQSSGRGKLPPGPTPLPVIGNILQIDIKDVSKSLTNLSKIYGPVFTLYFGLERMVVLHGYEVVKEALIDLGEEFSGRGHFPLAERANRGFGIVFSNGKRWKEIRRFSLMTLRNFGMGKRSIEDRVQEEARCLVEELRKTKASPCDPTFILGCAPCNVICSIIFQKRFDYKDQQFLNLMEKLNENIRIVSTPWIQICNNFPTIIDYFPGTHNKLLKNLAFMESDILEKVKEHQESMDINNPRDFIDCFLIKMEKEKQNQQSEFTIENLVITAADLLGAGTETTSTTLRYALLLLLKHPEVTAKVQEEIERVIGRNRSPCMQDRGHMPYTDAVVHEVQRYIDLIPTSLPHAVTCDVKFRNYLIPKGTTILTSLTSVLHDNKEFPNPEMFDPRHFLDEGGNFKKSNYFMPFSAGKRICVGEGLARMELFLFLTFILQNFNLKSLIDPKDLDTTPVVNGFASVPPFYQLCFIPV

According to patent EP4834906A1, “PYRAZOLOPYRIMIDINE COMPOUND AND PHARMACEUTICAL USE THEREOF” (dated 2026):

Key:
[1] = Metabolic stability in rat liver microsomes (NADPH + UDPGA); settings: rat liver microsomes 1.0 mg/mL, NADPH and UDPGA, 37°C
Excerpt: (§1) A certain amount of anhydrous sodium dihydrogen phosphate was weighed into a centrifuge tube, followed by addition of an appropriate amount of ultrapure water with vortex mixing to prepare a 0.1 mol/L sodium dihydrogen phosphate solution for later use. A certain amount of anhydrous disodium hydrogen phosphate was weighed into a centrifuge tube, followed by addition of an appropriate amount of ultrapure water with vortex mixing to prepare a 0.1 mol/L disodium hydrogen phosphate solution for later use. The sodium dihydrogen phosphate solution (0.1 mol/L) and the disodium hydrogen phosphate solution (0.1 mol/L) were mixed at a ratio of 19:81 (v:v) in a reagent bottle, and mixed thoroughly to obtain a 100 mmol/L phosphate buffer (PB) (concentration calculated based on phosphate ion concentration), which was stored at 2 to 8°C for later use.
(§2) An appropriate amount of NADPH was precisely weighed into a 1.5 mL centrifuge tube, followed by addition of an appropriate amount of PB with vortex mixing to prepare a 40 mmol/L NADPH solution, which was placed on ice for later use. An appropriate amount of UDPGA was precisely weighed into a 1.5 mL centrifuge tube, followed by addition of an appropriate amount of PB with vortex mixing to prepare a 40 mmol/L UDPGA solution, which was placed on ice for later use. Equal volumes of the NADPH and UDPGA solutions were pipetted into the same centrifuge tube with vortex mixing to prepare a mixture of NADPH and UDPGA (containing 20 mmol/L NADPH and 20 mmol/L UDPGA), which was placed on ice for later use.
(§3) An appropriate amount of testosterone reference standard was precisely weighed and dissolved in DMSO with vortex mixing to prepare a 20 mmol/L testosterone stock solution, which was stored in a -20°C freezer. An appropriate amount of 7-hydroxycoumarin reference standard was precisely weighed and dissolved in DMSO with vortex mixing to prepare a 20 mmol/L 7-hydroxycoumarin stock solution, which was stored in a -20°C freezer. Equal volumes of the testosterone and 7-hydroxycoumarin stock solutions were pipetted into the same 1.5 mL centrifuge tube and diluted with 50% methanol-water to prepare a 20 µmol/L mixed substrate working solution, which was placed on ice for later use. […]
(§4) The study consisted of three groups: a positive control group (PC), a negative control group (NC), and a treatment group. […] The remaining amount of test compound in the sample was quantified by LC-MS/MS. Metabolic stability of the test compounds in liver microsomes was evaluated by comparing compound concentrations at different reaction times were compared with those measured at T0. […]

[2] = Metabolic stability in mouse liver microsomes (NADPH + UDPGA); settings: mouse liver microsomes 1.0 mg/mL, NADPH and UDPGA, 37°C
Excerpt: as §1, §2, §3, §4

[3] = Metabolic stability in human liver microsomes (NADPH + UDPGA); settings: human liver microsomes 1.0 mg/mL, NADPH and UDPGA, 37°C
Excerpt: as §1, §2, §3, §4

[4] = In vivo pharmacokinetics in rats; settings: male SD rats, PO, 5 mg/kg; for AUC / Cmax / t1/2: plasma
Method: Male SD rats were fasted overnight (with free access to drinking water) and divided into an intravenous administration (IV) group and an intragastric administration (PO) group. For the IV group, blood samples (approximately 0.3 mL of blood per sample) were collected from the orbital venous plexus at 2 min, 10 min, 30 min, 1 h, 2 h, 4 h, 6 h, 8 h, and 24 h following administration. The samples were anticoagulated with disodium ethylenediaminetetraacetate (EDTA-2Na), placed on ice immediately after collection, and centrifuged at 4°C for 10 minutes within 1 hour to separate the plasma, which was stored at - 20°C for analysis. For the PO group, blood samples (0.3 mL) were collected from the orbital venous plexus at 5 min, 15 min, 30 min, 1 h, 2 h, 4 h, 6 h, 8 h, and 24 h following administration. Sample processing was identical to that used for the IV group. Plasma concentrations of the parent compounds were determined by LC-MS/MS. Pharmacokinetic parameters were calculated using Phoenix WinNonlin 8.1 based on plasma concentration-time data collected at different time points. Table 5: Results of in vivo pharmacokinetic studies of selected compounds in rats

[5] = molecular target: human hERG ion channels (Homo sapiens, UniProt Q12809); test: hERG current inhibition, conventional patch clamp in HEK293 cells; settings: percentage inhibition of the hERG current at 10 µM
Method: The inhibitory effects of compounds on human hERG ion channels stably expressed in HEK293 cells were evaluated using conventional patch-clamp techniques. Test compounds were prepared at a concentration of 10 µM. Each cell served as its own control. All compounds were perfused using a gravity-driven perfusion system. After stabilization of the hERG current, the current magnitudes before and after compound addition were compared for each cell. The percentage inhibition of the hERG current by each compound was then calculated. Table 3: Percentage inhibition of the hERG current by compounds

[6] = 28-day oral gavage toxicity evaluation in SD rats; settings: oral gavage 30 and 100 mg/kg, 28 days
Method: Eight male and eight female SD rats were randomly divided into groups as follows: normal control group (2 rats per sex), low-dose group (3 rats per sex per group), and high-dose group (3 rats per sex per group). The low-dose and high-dose groups received Compound 4 hydrochloride solutions at concentrations of 3 and 10 mg/mL (calculated as the free base) by oral gavage, respectively. The administration volume was 10 mL/kg, corresponding to doses of 30 and 100 mg/kg, respectively. The normal control group received an equivalent volume of vehicle (water). During the experiment, the rats had free access to drinking water and were administered continuously for 28 days. On the day following the final administration, blood samples were collected for measurement of 23 routine hematological and biochemical parameters. Gross necropsy examinations were performed on the heart, liver, spleen, lungs, kidneys, brain, gastrointestinal tract, thymus, testes (or ovaries), and other organs.

[7] = molecular target: CYP2B6 (Homo sapiens, UniProt P20813); test: CYP450 inhibition in human liver microsomes; settings: CYP2B6, substrate Bupropion HCl, human liver microsomes 0.2 mg/mL, incubation 45 min
Method: (§5) Disodium hydrogen phosphate was dissolved in ultrapure water by sonication to prepare a 100 mM solution (designated as Solution A). Potassium dihydrogen phosphate was dissolved in ultrapure water by sonication to prepare a 100 mM solution (designated as Solution B). Solution B was slowly added to Solution A under stirring until the pH reached 7.4. The phosphate buffer was stored at 4°C for later use. Ultrapure water was produced using a Sartorius ultrapure water system.
(§6) The positive control was prepared as a 10 mM DMSO stock solution. The volume ratio of the organic solvent introduced into the assay system along with the test compound was 1.0%.
(§7) Substrate stock solutions were prepared as shown in Table 7 below and stored in a - 20°C freezer. The stock solutions were thawed at room temperature before use.
(§8) Compound 4 hydrochloride was prepared as a 5 mM DMSO stock solution. The volume ratio of the organic solvent introduced into the assay system along with the test compound was 1.0%.
(§9) Human liver microsomes were purchased from BIOIVT (Cat. No. 452117, Lot No. SEU). The stock concentration was 20 mg/mL. The working concentration of the human liver microsomes and the final concentration in the reaction system are shown in Table 9 below.
(§10) Prior to the experiment, 13.14 mg of NADPH (Roche, Cat. No. 10107824001, Lot No. 71466624) was weighed and dissolved in 1.545 mL of PB to prepare a 10 mM working solution. The final concentration of NADPH in the assay system was 1 mM.
(§11) 7. All incubations were performed in a 1.5 mL centrifuge tube. First, 2 µL of the Compound 4 hydrochloride working solution or positive control working solution was added to the corresponding centrifuge tube. For the inhibitor-free group, 2 µL of DMSO:MeOH (1:1) solvent was added. Subsequently, 20 µL of the mixed substrate working solution and 158 µL of the liver microsome working solution were added. The mixture was pre-incubated in a water bath at 37°C for 5 minutes. The reaction was initiated by adding 20 µL of NADPH cofactor. The mixture was then further incubated at 37°C for the designated periods (see Table 10). All samples were prepared in duplicate.
(§12) After incubation, the reaction was terminated by adding 400 µL of ice-cold stop solution (methanol containing 1 ng/mL LMTA). The samples were vortexed and centrifuged at 17000 g and 4°C for 10 minutes. 180 µL of the supernatant was transferred into a 96-well plate for LC-MS/MS analysis.
(§13) Relative activity was calculated using the following equation: Relative activity (NC) = amount of metabolite produced in the treatment group or positive control group / average amount of metabolite produced in the negative control group; Inhibition (%) = (1 - NC) × 100%. Table 10: Inhibitory effect of Compound 4 hydrochloride on CYP450 isoforms

[8] = molecular target: CYP1A2 (Homo sapiens, UniProt P05177); test: CYP450 inhibition in human liver microsomes; settings: CYP1A2, substrate Phenacetin, human liver microsomes 0.2 mg/mL, incubation 15 min
Method: as §5, §6, §7, §8, §9, §10, §11, §12, §13

[9] = molecular target: CYP2D6 (Homo sapiens, UniProt P10635); test: CYP450 inhibition in human liver microsomes; settings: CYP2D6, substrate Dextromethorphan HBr, human liver microsomes 0.2 mg/mL, incubation 20 min
Method: as §5, §6, §7, §8, §9, §10, §11, §12, §13

[10] = molecular target: CYP2C8 (Homo sapiens, UniProt P10632); test: CYP450 inhibition in human liver microsomes; settings: CYP2C8, substrate Amodiaquine HCl, human liver microsomes 0.2 mg/mL, incubation 15 min
Method: as §5, §6, §7, §8, §9, §10, §11, §12, §13

[11] = molecular target: CYP2C9 (Homo sapiens, UniProt P11712); test: CYP450 inhibition in human liver microsomes; settings: CYP2C9, substrate Diclofenac, human liver microsomes 0.2 mg/mL, incubation 15 min
Method: as §5, §6, §7, §8, §9, §10, §11, §12, §13

[12] = molecular target: CYP2C19 (Homo sapiens, UniProt P33261); test: CYP450 inhibition in human liver microsomes; settings: CYP2C19, substrate S-Mephenytoin, human liver microsomes 0.5 mg/mL, incubation 45 min
Method: as §5, §6, §7, §8, §9, §10, §11, §12, §13

| SMILES | 60-min remaining (%) Rat [1] [%] | 60-min remaining (%) Mouse [2] [%] | 60-min remaining (%) Human [3] [%] | F (%) [4] [%] | AUC [4] [ng·h/mL] | Cmax [4] [ng/mL] | t1/2 [4] [h] | hERG% at 10 µM [5] [%] | Gross pathological examination of organs (surface color, shape, size, texture) [6] | Hematological and biochemical parameters compared with the normal group [6] | effect on body weight [6] | toxic reactions [6] | Inhibition (%) at 10 µM [7] [%] | Inhibition (%) at 10 µM [8] [%] | Inhibition (%) at 10 µM [9] [%] | Inhibition (%) at 10 µM [10] [%] | Inhibition (%) at 10 µM [11] [%] | Inhibition (%) at 10 µM [12] [%] |
| --- | --- | --- | --- | --- | --- | --- | --- | --- | --- | --- | --- | --- | --- | --- | --- | --- | --- | --- |
| Cc1cc(Cl)cc(O)c1-n1cc2cnc(N[C@@H]3CCCN(C)C3)nc2n1 | 86.09 | 82.57 | 86.56 | 99.8 | 8804.2 | 1934.7 | 2.95 | 9.3 | – | – | – | – | – | – | – | – | – | – |
| Cc1cc(C2CC2)cc(O)c1-n1cc2cnc(N[C@@H]3CCCN(C)C3)nc2n1 | 88.14 | 95.62 | 88.14 | – | – | – | – | – | – | – | – | – | – | – | – | – | – | – |
| Cc1cc(C(F)(F)F)cc(O)c1-n1cc2cnc(N[C@@H]3CCCN(C)C3)nc2n1 | 97.99 | 93.99 | 93.10 | 74.8 | 38296.3 | 5442.0 | 4.05 | 27.7 | no significant pathological changes | no significant abnormalities | no significant effect on body weight | no obvious toxic reactions were observed | 21.8 | 11.5 | -1.6 | 7.1 | -0.4 | 9.7 |
| C#Cc1cc(C)c(-n2cc3cnc(N[C@@H]4CCCN(C)C4)nc3n2)c(O)c1 | 94.68 | 92.13 | 95.34 | – | – | – | – | – | – | – | – | – | – | – | – | – | – | – |
